Experimental findings from patent US10683309B2, “Xanthine derivatives, their use as a medicament, and pharmaceutical preparations comprising the same” (MAX-DELBRÜCK-CENTRUM FÜR MOLEKULARE MEDIZIN, priority 2016, dated 2020) are described below.

Sequences of proteins named here, by UniProt entry; tags and fusion partners are left off. A change or cut given only in a name is not applied to a line headed by its entry.
UniProt P17752: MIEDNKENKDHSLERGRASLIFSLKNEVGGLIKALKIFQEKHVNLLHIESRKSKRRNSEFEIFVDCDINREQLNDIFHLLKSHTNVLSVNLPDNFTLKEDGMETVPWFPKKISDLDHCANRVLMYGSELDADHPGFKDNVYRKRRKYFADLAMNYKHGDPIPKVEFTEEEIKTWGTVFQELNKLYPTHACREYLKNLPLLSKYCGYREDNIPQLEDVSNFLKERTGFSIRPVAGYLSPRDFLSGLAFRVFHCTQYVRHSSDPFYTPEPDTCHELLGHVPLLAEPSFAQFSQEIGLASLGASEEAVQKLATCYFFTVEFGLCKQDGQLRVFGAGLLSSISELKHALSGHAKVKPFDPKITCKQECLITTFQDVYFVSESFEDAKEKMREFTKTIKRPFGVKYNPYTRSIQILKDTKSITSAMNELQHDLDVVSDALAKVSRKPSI

In one experiment the target is recombinant human TPH1 (Swiss-Prot: P17752) (Homo sapiens (Human), UniProt P17752). The experiment is described as follows: In vitro enzyme activity assay, fluorescence-based, TPH1 inhibition.
Details: not given
The IC50 is the point on the concentration scale where inhibition reaches its midpoint. For `CCn1c(=O)[nH]c(=O)c2c1nc(Cc1cn3ccccc3n1)n2Cc1ccc(-c2ccc(C(F)(F)F)cn2)cc1` [Ex. 11, 3-ethyl-8-(imidazo[1,2-a]pyridin-2-ylmethyl)-7-(4-(5-(trifluoromethyl)pyridin-2-yl)benzyl)-3,7-dihydro-1H-purine-2,6-dione], the IC50 was found to be 0.94 µM.

Staying with this experiment, now noted: read-out: IC50 TPH1 (μM) mean; recombinant human TPH1, 40 μM tryptophan, pH 7.0, mean of sample triplicates.
For `CCn1c(=O)[nH]c(=O)c2c1nc(Cc1cn3c(n1)CCCC3)n2Cc1ccccc1` [Ex. 2, 7-benzyl-3-ethyl-8-((5,6,7,8-tetrahydroimidazo[1,2-a]pyridin-2-yl)methyl)-3,7-dihydro-1H-purine-2,6-dione], the IC50 stood at 0.412 µM.
For the compound `CCn1c(=O)[nH]c(=O)c2c1nc(Cc1cn3c(n1)CCCC3)n2Cc1ccc(-c2ccccc2)cc1` [Ex. 3, 7-([1,1′-biphenyl]-4-ylmethyl)-3-ethyl-8-((5,6,7,8-tetrahydroimidazo[1,2-a]pyridin-2-yl)methyl)-3,7-dihydro-1H-purine-2,6-dione], the IC50 came out at 0.338 µM.
With `CCn1c(=O)[nH]c(=O)c2c1nc(Cc1cn3ccccc3n1)n2Cc1ccc(C(=O)OC)cc1` [Ex. 4, Methyl 4-((8-((H-imidazo[1,2-a]pyridin-2-yl)methyl)-3-ethyl-1,2,3,6-tetrahydro-2,6-dioxopurin-7-yl)methyl)benzoate], the half-inhibitory concentration (IC50) was 0.198 µM.
Same read-out and setting: in the case of `CCn1c(=O)[nH]c(=O)c2c1nc(Cc1cn3ccccc3n1)n2Cc1ccc2c(c1)OCO2` [Ex. 5, 8-((H-imidazo[1,2-a]pyridin-2-yl)methyl)-7-((benzo[d][1,3]dioxol-5-yl)methyl)-3-ethyl-1H-purine-2,6(3H,7H)-dione] it was 0.409 µM; in that of `CCn1c(=O)[nH]c(=O)c2c1nc(Cc1cn3ccccc3n1)n2Cc1ccc(C(=O)O)cc1` [Ex. 6, 4-((3-ethyl-8-(imidazo[1,2-a]pyridin-2-ylmethyl)-2,6-dioxo-1,2,3,6-tetrahydro-7H-purin-7-yl)methyl)benzoic acid], 7.83 µM.
Turning to `CCn1c(=O)[nH]c(=O)c2c1nc(Cc1cn3ccccc3n1)n2Cc1ccc(-c2ccn(C)n2)cc1` [Ex. 7, 3-ethyl-8-(imidazo[1,2-a]pyridin-2-ylmethyl)-7-(4-(1-methyl-1H-pyrazol-3-yl)benzyl)-3,7-dihydro-1H-purine-2,6-dione], the IC50 stood at 0.177 µM.
On to `CCn1c(=O)[nH]c(=O)c2c1nc(Cc1cn3ccccc3n1)n2Cc1ccc(-c2noc(C)n2)cc1` [Ex. 8, 7-(4-(5-methyl-1,2,4-oxadiazol-3-yl)benzyl)-8-((H-imidazo[1,2-a]pyridin-2-yl)methyl)-3-ethyl-1H-purine-2,6(3H,7H)-dione], for which the half-inhibitory concentration (IC50) came to 0.219 µM.
On the same count and under the same terms, in the case of `CCn1c(=O)[nH]c(=O)c2c1nc(Cc1cn3ccccc3n1)n2Cc1ccc(-c2ncccn2)cc1` [Ex. 9, 3-ethyl-8-(imidazo[1,2-a]pyridin-2-ylmethyl)-7-(4-(pyrimidin-2-yl)benzyl)-3,7-dihydro-1H-purine-2,6-dione] it was 0.288 µM; in that of `CCn1c(=O)[nH]c(=O)c2c1nc(Cc1cn3ccccc3n1)n2Cc1ccc(-c2nccs2)cc1` [Ex. 10, 3-ethyl-8-(imidazo[1,2-a]pyridin-2-ylmethyl)-7-(4-(thiazol-2-yl)benzyl)-3,7-dihydro-1H-purine-2,6-dione], 0.232 µM.
Same read-out and setting: in the case of `CCn1c(=O)[nH]c(=O)c2c1nc(Cc1cn3ccccc3n1)n2Cc1ccc(-c2nc(C)no2)cc1` [Ex. 12, 3-ethyl-8-(imidazo[1,2-a]pyridin-2-ylmethyl)-7-(4-(3-methyl-1,2,4-oxadiazol-5-yl)benzyl)-3,7-dihydro-1H-purine-2,6-dione] it was 0.487 µM; in that of `CCn1c(=O)[nH]c(=O)c2c1nc(Cc1cn3nc(C)sc3n1)n2Cc1ccccc1` [Ex. 13, 7-benzyl-3-ethyl-8-((2-methylimidazo[2,1-b][1,3,4]thiadiazol-6-yl)methyl)-3,7-dihydro-1H-purine-2,6-dione], 0.213 µM.
Regarding `CCn1c(=O)[nH]c(=O)c2c1nc(Cc1cn3ccsc3n1)n2Cc1ccccc1` [Ex. 14, 7-benzyl-3-ethyl-8-(imidazo[2,1-b]thiazol-6-ylmethyl)-3,7-dihydro-1H-purine-2,6-dione], the half-maximal inhibitory concentration (IC50) was determined as 0.068 µM.
Same read-out and setting: in the case of `CCn1c(=O)[nH]c(=O)c2c1nc(Cc1cn3ccsc3n1)n2Cc1ccc(-c2ccn(C)n2)cc1` [Ex. 15, 7-(4-(1-methyl-1H-pyrazol-3-yl)benzyl)-3-ethyl-8-((imidazo[2,1-b]thiazol-6-yl)methyl)-1H-purine-2,6(3H,7H)-dione] it was 0.034 µM; in that of `CCn1c(=O)[nH]c(=O)c2c1nc(Cc1cn3cc(C)sc3n1)n2Cc1ccccc1` [Ex. 16, 7-benzyl-3-ethyl-8-((2-methylimidazo[2,1-b]thiazol-6-yl)methyl)-1H-purine-2,6(3H,7H)-dione], 0.054 µM; in that of `CCn1c(=O)[nH]c(=O)c2c1nc(Cc1cn3cc(C)sc3n1)n2Cc1ccc(-c2ccn(C)n2)cc1` [Ex. 17, 3-ethyl-7-(4-(1-methyl-1H-pyrazol-3-yl)benzyl)-8-((2-methylimidazo[2,1-b]thiazol-6-yl)methyl)-3,7-dihydro-1H-purine-2,6-dione], 0.084 µM.
Same read-out and setting: in the case of `CCn1c(=O)[nH]c(=O)c2c1nc(Cc1cn3c(n1)CCCC3)n2Cc1ccc(-c2ccn(C)n2)cc1` [Ex. 18, 7-(4-(1-methyl-1H-pyrazol-3-yl)benzyl)-3-ethyl-8-((5,6,7,8-tetrahydroimidazo[1,2-a]pyridin-2-yl)methyl)-1H-purine-2,6(3H,7H)-dione] it was 0.209 µM; in that of `CCn1c(=O)[nH]c(=O)c2c1nc(Cc1cn3ccccc3n1)n2Cc1ccc(CC(=O)OC)cc1` [Ex. 19, methyl 2-(4-((3-ethyl-8-(imidazo[1,2-a]pyridin-2-ylmethyl)-2,6-dioxo-1,2,3,6-tetrahydro-7H-purin-7-yl)methyl)phenyl)acetate], 0.763 µM; in that of `CCn1c(=O)[nH]c(=O)c2c1nc(Cc1cn3cc(Cl)sc3n1)n2Cc1ccc(-c2ccn(C)n2)cc1` [Ex. 20, 8-((2-chloroimidazo[2,1-b]thiazol-6-yl)methyl)-3-ethyl-7-(4-(1-methyl-1H-pyrazol-3-yl)benzyl)-3,7-dihydro-1H-purine-2,6-dione], 0.225 µM.
For `CCn1c(=O)[nH]c(=O)c2c1nc(Cc1cn3cc(Cl)sc3n1)n2Cc1ccccc1` [Ex. 21, 7-benzyl-8-((2-chloroimidazo[2,1-b]thiazol-6-yl)methyl)-3-ethyl-3,7-dihydro-1H-purine-2,6-dione], the IC50 was found to be 0.162 µM.
As to `O=c1[nH]c(=O)n(C2CC2)c2nc(Cc3cn4ccccc4n3)n(Cc3ccccc3)c12` [Ex. 22, 7-benzyl-3-cyclopropyl-8-(imidazo[1,2-a]pyridin-2-ylmethyl)-3,7-dihydro-1H-purine-2,6-dione], the 50% inhibitory concentration (IC50) stood at 0.802 µM.
Regarding `CCn1c(=O)[nH]c(=O)c2c1nc(Cc1cn3ccccc3n1)n2Cc1ccc(CCO)cc1` [Ex. 23, 3-ethyl-7-(4-(2-hydroxyethyl)benzyl)-8-(imidazo[1,2-a]pyridin-2-ylmethyl)-3,7-dihydro-1H-purine-2,6-dione], the concentration for half-maximal inhibition (IC50) stood at 2.06 µM.
Turning to `CCn1c(=O)[nH]c(=O)c2c1nc(Cc1cn3ccccc3n1)n2Cc1ccc(CC(=O)O)cc1` [Ex. 24, 2-(4-((3-ethyl-8-(imidazo[1,2-a]pyridin-2-ylmethyl)-2,6-dioxo-1,2,3,6-tetrahydro-7H-purin-7-yl)methyl)phenyl)acetic acid], the half-inhibitory concentration (IC50) turned out to be 134 µM.
In the case of `CCn1c(=O)[nH]c(=O)c2c1nc(Cc1cn3cc(C)sc3n1)n2Cc1ccc(F)cc1` [Ex. 26, 3-ethyl-7-(4-fluorobenzyl)-8-((2-methylimidazo[2,1-b]thiazol-6-yl)methyl)-3,7-dihydro-1H-purine-2,6-dione], the IC50 was 0.217 µM.
Same read-out and setting: the figure for `CCn1c(=O)[nH]c(=O)c2c1nc(Cc1cn3cc(C)sc3n1)n2Cc1ccc(OC)cc1` [Ex. 27, 3-ethyl-7-(4-methoxybenzyl)-8-((2-methylimidazo[2,1-b]thiazol-6-yl)methyl)-3,7-dihydro-1H-purine-2,6-dione] is 0.133 µM; for `CCn1c(=O)[nH]c(=O)c2c1nc(Cc1cn3cc(Cl)sc3n1)n2Cc1ccc(NC(C)=O)cc1` [Ex. 28, N-(4-((8-((2-chloroimidazo[2,1-b]thiazol-6-yl)methyl)-3-ethyl-1,2,3,6-tetrahydro-2,6-dioxopurin-7-yl)methyl)phenyl)acetamide] it is 0.116 µM; for `CCn1c(=O)[nH]c(=O)c2c1nc(Cc1cn3cc(Cl)sc3n1)n2Cc1ccc(-n2cncn2)cc1` [Ex. 29, 7-(4-(1H-1,2,4-triazol-1-yl)benzyl)-8-((2-chloroimidazo[2,1-b]thiazol-6-yl)methyl)-3-ethyl-3,7-dihydro-1H-purine-2,6-dione] it is 0.419 µM.
The same measure, in the same setting: the figure for `CCn1c(=O)[nH]c(=O)c2c1nc(Cc1cn3cc(C)sc3n1)n2Cc1ccc(NC(C)=O)cc1` [Ex. 30, N-(4-((3-ethyl-8-((2-methylimidazo[2,1-b]thiazol-6-yl)methyl)-2,6-dioxo-1,2,3,6-tetrahydro-7H-purin-7-yl)methyl)phenyl)acetamide] is 0.056 µM.
Same read-out and setting: in the case of `CCn1c(=O)[nH]c(=O)c2c1nc(Cc1cn3c(n1)CCCC3)n2Cc1ccc(-n2cncn2)cc1` [Ex. 31, 7-(4-(1H-1,2,4-triazol-1-yl)benzyl)-3-ethyl-8-((5,6,7,8-tetrahydroimidazo[1,2-a]pyridin-2-yl)methyl)-3,7-dihydro-1H-purine-2,6-dione] it was 0.469 µM; in that of `CCn1c(=O)[nH]c(=O)c2c1nc(Cc1cn3cc(C)sc3n1)n2Cc1ccc(N2CCCC2=O)cc1` [Ex. 32, 3-ethyl-8-((2-methylimidazo[2,1-b]thiazol-6-yl)methyl)-7-(4-(2-oxopyrrolidin-1-yl)benzyl)-3,7-dihydro-1H-purine-2,6-dione], 0.069 µM; in that of `CCn1c(=O)[nH]c(=O)c2c1nc(Cc1cn3c(n1)CCCC3)n2Cc1ccc(-n2ccnc2)cc1` [Ex. 33, 7-(4-(1H-imidazol-1-yl)benzyl)-3-ethyl-8-((5,6,7,8-tetrahydroimidazo[1,2-a]pyridin-2-yl)methyl)-3,7-dihydro-1H-purine-2,6-dione], 0.546 µM.
With `CCn1c(=O)[nH]c(=O)c2c1nc(Cc1cn3cc(Cl)sc3n1)n2Cc1ccc(N2CC(F)(F)C2)cc1` [Ex. 34, 8-((2-chloroimidazo[2,1-b]thiazol-6-yl)methyl)-7-(4-(3,3-difluoroazetidin-1-yl)benzyl)-3-ethyl-3,7-dihydro-1H-purine-2,6-dione], the half-inhibitory concentration (IC50) is 0.411 µM.
